Measured values published in patent US6664280B2, “Antivesicant compounds and methods of making and using thereof” (dated 2003).

Tests used:
HD-exposed mouse ear [1] = assay: Mouse Ear Antivesicant Drug Screening Assay: edema, relative ear weight (REW); conditions: for antivesicant activity (relative ear weight reduction) / protective efficacy (relative ear weight reduction): dose not given; for protective efficacy (relative ear weight reduction): applied 20 minutes after the HD exposure; for % REW reduction: topical, mouse ear
HD-exposed mouse ear [2] = assay: Mouse Ear Antivesicant Drug Screening Assay: histopathologic severity scores (SEB, EN, CEN); conditions: topical
[3] = total dose 0.15 mg, applied +10 minute (after HD exposure)
[4] = total dose 0.15 mg, applied −15 minute (before HD exposure)
[5] = total dose 0.3 mg, applied +10 minute (after HD exposure)
[6] = total dose 0.3 mg, applied −15 minute (before HD exposure)
[7] = total dose 0.6 mg, applied +20 minute (after HD exposure)
[8] = total dose 0.6 mg, applied −15 minute (before HD exposure)
[9] = total dose 1.2 mg, applied +10 minute (after HD exposure)
[10] = total dose 1.2 mg, applied −15 minute (before HD exposure)
[11] = total dose 2.4 mg, applied +10 minute (after HD exposure)
[12] = total dose 2.4 mg, applied −15 minute (before HD exposure)
[13] = total dose 0.6 mg, applied +10 minute (after HD exposure)
[14] = total dose 0.6 mg, applied +60 minute (after HD exposure)

Structure (SMILES): Cc1cc[n+]([O-])c(S)c1
- antivesicant activity (relative ear weight reduction) (HD-exposed mouse ear [1]; 10 minutes post-exposure): about 68%
- antivesicant activity (relative ear weight reduction) (HD-exposed mouse ear [1]; 15 minutes pre-exposure): about 57%
- protective efficacy (relative ear weight reduction) (HD-exposed mouse ear [1]): about 11%
- % REW reduction (HD-exposed mouse ear [1]; [3]): 34.01%
- % REW reduction (HD-exposed mouse ear [1]; [4]): 25.37%
- % REW reduction (HD-exposed mouse ear [1]; [5]): 41.93%
- % REW reduction (HD-exposed mouse ear [1]; [6]): 38.95%
- % REW reduction (HD-exposed mouse ear [1]; [7]): 10.64%
- % REW reduction (HD-exposed mouse ear [1]; [8]): 57.05% and 57.20%
- % REW reduction (HD-exposed mouse ear [1]; [9]): 30.99%
- % REW reduction (HD-exposed mouse ear [1]; [10]): 48.70%
- % REW reduction (HD-exposed mouse ear [1]; [11]): 30.40%
- % REW reduction (HD-exposed mouse ear [1]; [12]): 69.11%
- % CEN reduction (HD-exposed mouse ear [2]; [3]): 60.00%
- % EN reduction (HD-exposed mouse ear [2]; [3]): 2.56%
- % SEB reduction (HD-exposed mouse ear [2]; [3]): 57.14%
- % CEN reduction (HD-exposed mouse ear [2]; [4]): 71.88%
- % EN reduction (HD-exposed mouse ear [2]; [4]): 10.81%
- % SEB reduction (HD-exposed mouse ear [2]; [4]): 0.00%
- % CEN reduction (HD-exposed mouse ear [2]; [5]): 68.57%
- % EN reduction (HD-exposed mouse ear [2]; [5]): 10.26%
- % SEB reduction (HD-exposed mouse ear [2]; [5]): 57.14%
- % CEN reduction (HD-exposed mouse ear [2]; [6]): 68.75%
- % EN reduction (HD-exposed mouse ear [2]; [6]): 13.51%
- % SEB reduction (HD-exposed mouse ear [2]; [6]): 60.00%
- % CEN reduction (HD-exposed mouse ear [2]; [13]): 65.81% and 85.19% and 65.71%
- % CEN reduction (HD-exposed mouse ear [2]; [7]): 28.21%
- % EN reduction (HD-exposed mouse ear [2]; [7]): 2.50%
- % SEB reduction (HD-exposed mouse ear [2]; [7]): 50.00%
- % CEN reduction (HD-exposed mouse ear [2]; [8]): 93.75% and 71.88%
- % CEN reduction (HD-exposed mouse ear [2]; [9]): 71.43%
- % EN reduction (HD-exposed mouse ear [2]; [9]): 7.69%
- % SEB reduction (HD-exposed mouse ear [2]; [9]): 71.43%
- % CEN reduction (HD-exposed mouse ear [2]; [10]): 75.00%
- % EN reduction (HD-exposed mouse ear [2]; [10]): 27.03%
- % SEB reduction (HD-exposed mouse ear [2]; [10]): 60.00%
- % CEN reduction (HD-exposed mouse ear [2]; [11]): 68.57%
- % EN reduction (HD-exposed mouse ear [2]; [11]): 20.51%
- % SEB reduction (HD-exposed mouse ear [2]; [11]): 85.71%
- % CEN reduction (HD-exposed mouse ear [2]; [12]): 84.38%
- % EN reduction (HD-exposed mouse ear [2]; [12]): 48.65%
- % SEB reduction (HD-exposed mouse ear [2]; [12]): 80.00%

Structure (SMILES): [O-][n+]1ccccc1S
- antivesicant activity compared with analogs (HD-exposed mouse ear [1]; ten minutes post-exposure assay): as active as the 6-methyl-analog, but less active than the 4-methyl-analog
- % REW reduction (HD-exposed mouse ear [1]; [3]): 7.02%
- % REW reduction (HD-exposed mouse ear [1]; [4]): 27.24%
- % REW reduction (HD-exposed mouse ear [1]; [5]): 3.29%
- % REW reduction (HD-exposed mouse ear [1]; [6]): 38.20%
- % REW reduction (HD-exposed mouse ear [1]; [7]): 16.37%
- % REW reduction (HD-exposed mouse ear [1]; [8]): 41.65% and 35.96%
- % REW reduction (HD-exposed mouse ear [1]; [9]): 26.24%
- % REW reduction (HD-exposed mouse ear [1]; [10]): 47.68%
- % REW reduction (HD-exposed mouse ear [1]; [11]): 24.71%
- % REW reduction (HD-exposed mouse ear [1]; [12]): 69.42%
- % CEN reduction (HD-exposed mouse ear [2]; [3]): 46.67%
- % EN reduction (HD-exposed mouse ear [2]; [3]): 2.78%
- % SEB reduction (HD-exposed mouse ear [2]; [3]): 25.00%
- % CEN reduction (HD-exposed mouse ear [2]; [4]): 44.12%
- % EN reduction (HD-exposed mouse ear [2]; [4]): 10.53%
- % SEB reduction (HD-exposed mouse ear [2]; [4]): 75.00%
- % CEN reduction (HD-exposed mouse ear [2]; [5]): 53.33%
- % EN reduction (HD-exposed mouse ear [2]; [5]): −8.33%
- % SEB reduction (HD-exposed mouse ear [2]; [5]): 100.00%
- % CEN reduction (HD-exposed mouse ear [2]; [6]): 55.88%
- % EN reduction (HD-exposed mouse ear [2]; [6]): 31.58%
- % SEB reduction (HD-exposed mouse ear [2]; [6]): 75.00%
- % CEN reduction (HD-exposed mouse ear [2]; [7]): 48.57%
- % EN reduction (HD-exposed mouse ear [2]; [7]): 7.69%
- % SEB reduction (HD-exposed mouse ear [2]; [7]): 77.78%
- % CEN reduction (HD-exposed mouse ear [2]; [8]): 50.00% and 65.63%
- % SEB reduction (HD-exposed mouse ear [2]; [8]): 50.00%
- % CEN reduction (HD-exposed mouse ear [2]; [9]): 50.00%
- % EN reduction (HD-exposed mouse ear [2]; [9]): 2.78%
- % SEB reduction (HD-exposed mouse ear [2]; [9]): 50.00%
- % CEN reduction (HD-exposed mouse ear [2]; [10]): 91.18%
- % EN reduction (HD-exposed mouse ear [2]; [10]): 31.58%
- % SEB reduction (HD-exposed mouse ear [2]; [10]): 75.00%
- % CEN reduction (HD-exposed mouse ear [2]; [11]): 53.33%
- % EN reduction (HD-exposed mouse ear [2]; [11]): −5.56%
- % SEB reduction (HD-exposed mouse ear [2]; [11]): 0.00%
- % CEN reduction (HD-exposed mouse ear [2]; [12]): 94.12%
- % EN reduction (HD-exposed mouse ear [2]; [12]): 68.42%
- % SEB reduction (HD-exposed mouse ear [2]; [12]): 100%

Structure (SMILES): Cc1cc(C)[n+]([O-])c(S)c1
- % REW reduction (HD-exposed mouse ear [1]; [8]): 36.85%

Structure (SMILES): [O-][n+]1cccc(Cl)c1S
- % REW reduction (HD-exposed mouse ear [1]; [8]): 18.31%

Structure (SMILES): Cc1cccc(S)[n+]1[O-]
- antivesicant activity (relative ear weight reduction) (HD-exposed mouse ear [1]; 10 minutes post-exposure): about 36%
- antivesicant activity (relative ear weight reduction) (HD-exposed mouse ear [1]; 15 minutes pre-exposure): about 42%
- protective activity (HD-exposed mouse ear [1]; 60 minutes after HD exposure): significant protective activity
- protective efficacy (relative ear weight reduction) (HD-exposed mouse ear [1]): about 25%
- % REW reduction (HD-exposed mouse ear [1]; [3]): 0.97%
- % REW reduction (HD-exposed mouse ear [1]; [4]): 19.81%
- % REW reduction (HD-exposed mouse ear [1]; [5]): 10.95%
- % REW reduction (HD-exposed mouse ear [1]; [6]): 21.62%
- % REW reduction (HD-exposed mouse ear [1]; [13]): 27.61% and 35.74% and 19.47%
- % REW reduction (HD-exposed mouse ear [1]; [7]): 25.19%
- % REW reduction (HD-exposed mouse ear [1]; [14]): 22.17%
- % REW reduction (HD-exposed mouse ear [1]; [9]): 19.98%
- % REW reduction (HD-exposed mouse ear [1]; [10]): 47.80%
- % REW reduction (HD-exposed mouse ear [1]; [11]): 10.39%
- % REW reduction (HD-exposed mouse ear [1]; [12]): 40.13%
- % CEN reduction (HD-exposed mouse ear [2]; [3]): 17.86%
- % EN reduction (HD-exposed mouse ear [2]; [3]): −8.57%
- % SEB reduction (HD-exposed mouse ear [2]; [3]): 0.00%
- % CEN reduction (HD-exposed mouse ear [2]; [4]): 41.18%
- % EN reduction (HD-exposed mouse ear [2]; [4]): 7.89%
- % SEB reduction (HD-exposed mouse ear [2]; [4]): −25.00%
- % CEN reduction (HD-exposed mouse ear [2]; [5]): 32.14%
- % EN reduction (HD-exposed mouse ear [2]; [5]): −5.71%
- % SEB reduction (HD-exposed mouse ear [2]; [5]): 0.00%
- % CEN reduction (HD-exposed mouse ear [2]; [6]): 52.94%
- % EN reduction (HD-exposed mouse ear [2]; [6]): 5.26%
- % SEB reduction (HD-exposed mouse ear [2]; [6]): −25.00%
- % SEB reduction (HD-exposed mouse ear [2]; [13]): 50.00% and 61.43%
- % CEN reduction (HD-exposed mouse ear [2]; [7]): 31.60%
- % EN reduction (HD-exposed mouse ear [2]; [7]): 3.33%
- % SEB reduction (HD-exposed mouse ear [2]; [7]): 87.14%
- % CEN reduction (HD-exposed mouse ear [2]; [14]): 17.20%
- % EN reduction (HD-exposed mouse ear [2]; [14]): 3.33%
- % SEB reduction (HD-exposed mouse ear [2]; [14]): 74.29%
- % CEN reduction (HD-exposed mouse ear [2]; [8]): 56.25% and 35.29%
- % CEN reduction (HD-exposed mouse ear [2]; [9]): 17.86%
- % EN reduction (HD-exposed mouse ear [2]; [9]): 2.86%
- % SEB reduction (HD-exposed mouse ear [2]; [9]): 0.00%
- % CEN reduction (HD-exposed mouse ear [2]; [10]): 67.65%
- % EN reduction (HD-exposed mouse ear [2]; [10]): 0.00%
- % SEB reduction (HD-exposed mouse ear [2]; [10]): 50.00%
- % CEN reduction (HD-exposed mouse ear [2]; [11]): 57.14%
- % EN reduction (HD-exposed mouse ear [2]; [11]): −5.71%
- % SEB reduction (HD-exposed mouse ear [2]; [11]): 25.00%
- % CEN reduction (HD-exposed mouse ear [2]; [12]): 64.71%
- % EN reduction (HD-exposed mouse ear [2]; [12]): 23.68%
- % SEB reduction (HD-exposed mouse ear [2]; [12]): 75.00%

Structure (SMILES): [O-][n+]1cc(Br)ccc1S
- % REW reduction (HD-exposed mouse ear [1]; [8]): 15.61%

Structure (SMILES): [O-][n+]1cc(Cl)ccc1S
- % REW reduction (HD-exposed mouse ear [1]; [8]): 5.32%

Values joined by “and” are separate entries in the source; they are usually repeats but may differ in a detail not shown here. Equal entries are not always repeated.
